Paper PMC3103436 (Journal of Translational Medicine, 2011)
“And” between values parts separate entries of the source, which are not always exact repeats. Equal values may be shown once.

System: COc1ccc2cc3[n+](cc2c1OC)CCc1cc2c(cc1-3)OCO2
Assay: cells, lysate or membranes named
Details: 25.0 °C

Substance: CYP3A4 (Homo sapiens)
- Km: 27.8 ± 0.79 µM and 27.1 ± 1.03 µM
